# Experimental data reported in PMC3914206.
# Legend:
# Type in all cases: binding
# Conditions in all cases: Compound Concentration 10 µM
# panel of 442 kinases [1] = target: T1, panel of 442 kinases (Homo sapiens, UniProt P45985)
# T1 construct: purchased KINOMEscan
# From the text: (§1) We assessed the selectivity of members of this scaffold using the KINOMEscan methodology across a near comprehensive panel of 442 kinases [[18,27]].
# panel of 442 kinases [2] = target: T2, panel of 442 kinases (Homo sapiens, UniProt P17612)
# T2 construct: purchased KINOMEscan
# From the text: as §1
# panel of 442 kinases [3] = target: T3, panel of 442 kinases (Homo sapiens, UniProt P04626)
# T3 construct: purchased KINOMEscan
# From the text: as §1
# panel of 442 kinases [4] = target: T4, panel of 442 kinases (Homo sapiens, UniProt Q9P286)
# T4 construct: purchased KINOMEscan
# From the text: as §1
# panel of 442 kinases [5] = target: T5, panel of 442 kinases (Homo sapiens, UniProt P36888)
# T5 construct: purchased KINOMEscan
# From the text: as §1
# panel of 442 kinases [6] = target: T6, panel of 442 kinases (Homo sapiens, UniProt P42684)
# T6 construct: purchased KINOMEscan
# From the text: as §1
# panel of 442 kinases [7] = target: T7, panel of 442 kinases (Homo sapiens, UniProt P78356)
# T7 construct: purchased KINOMEscan
# From the text: as §1
# panel of 442 kinases [8] = target: T8, panel of 442 kinases (Homo sapiens, UniProt P08631)
# T8 construct: purchased KINOMEscan
# From the text: as §1
# panel of 442 kinases [9] = target: T9, panel of 442 kinases (Homo sapiens, UniProt O94768)
# T9 construct: purchased KINOMEscan
# From the text: as §1
# panel of 442 kinases [10] = target: T10, panel of 442 kinases (Homo sapiens, UniProt Q13177)
# T10 construct: purchased KINOMEscan
# From the text: as §1
# panel of 442 kinases [11] = target: T11, panel of 442 kinases (Homo sapiens, UniProt P22694)
# T11 construct: purchased KINOMEscan
# From the text: as §1
# panel of 442 kinases [12] = target: T12, panel of 442 kinases (Homo sapiens, UniProt P53667)
# T12 construct: purchased KINOMEscan
# From the text: as §1
# panel of 442 kinases [13] = target: T13, panel of 442 kinases (Homo sapiens, UniProt Q12851)
# T13 construct: purchased KINOMEscan
# From the text: as §1
# panel of 442 kinases [14] = target: T14, panel of 442 kinases (Homo sapiens, UniProt O76039)
# T14 construct: purchased KINOMEscan
# From the text: as §1
# panel of 442 kinases [15] = target: T15, panel of 442 kinases (Homo sapiens, UniProt Q00536)
# T15 construct: purchased KINOMEscan
# From the text: as §1
# panel of 442 kinases [16] = target: T16, panel of 442 kinases (Homo sapiens, UniProt O95835)
# T16 construct: purchased KINOMEscan
# From the text: as §1
# panel of 442 kinases [17] = target: T17, panel of 442 kinases (Homo sapiens, UniProt Q13188)
# T17 construct: purchased KINOMEscan
# From the text: as §1
# panel of 442 kinases [18] = target: T18, panel of 442 kinases (Homo sapiens, UniProt Q00535)
# T18 construct: purchased KINOMEscan
# From the text: as §1
# panel of 442 kinases [19] = target: T19, panel of 442 kinases (Homo sapiens, UniProt P06239)
# T19 construct: purchased KINOMEscan
# From the text: as §1
# panel of 442 kinases [20] = target: T20, panel of 442 kinases (Homo sapiens, UniProt P10721, D816V)
# T20 construct: purchased KINOMEscan
# From the text: as §1
# panel of 442 kinases [21] = target: T21, panel of 442 kinases (Homo sapiens, UniProt Q8N5S9)
# T21 construct: purchased KINOMEscan
# From the text: as §1
# panel of 442 kinases [22] = target: T22, panel of 442 kinases (Homo sapiens, UniProt Q15831)
# T22 construct: purchased KINOMEscan
# From the text: as §1
# panel of 442 kinases [23] = target: T23, panel of 442 kinases (Homo sapiens, UniProt O96017)
# T23 construct: purchased KINOMEscan
# From the text: as §1
# panel of 442 kinases [24] = target: T24, panel of 442 kinases (Homo sapiens, UniProt Q13873)
# T24 construct: purchased KINOMEscan
# From the text: as §1
# panel of 442 kinases [25] = target: T25, panel of 442 kinases (Homo sapiens, UniProt Q9Y6R4)
# T25 construct: purchased KINOMEscan
# From the text: as §1
# panel of 442 kinases [26] = target: T26, panel of 442 kinases (Homo sapiens, UniProt P37023)
# T26 construct: purchased KINOMEscan
# From the text: as §1
# panel of 442 kinases [27] = target: T27, panel of 442 kinases (Homo sapiens, UniProt Q16539)
# T27 construct: purchased KINOMEscan
# From the text: as §1
# panel of 442 kinases [28] = target: T28, panel of 442 kinases (Homo sapiens, UniProt P42336, C420R)
# T28 construct: purchased KINOMEscan
# From the text: as §1
# panel of 442 kinases [29] = target: T29, panel of 442 kinases (Homo sapiens, UniProt Q99683)
# T29 construct: purchased KINOMEscan
# From the text: as §1
# panel of 442 kinases [30] = target: T30, panel of 442 kinases (Homo sapiens, UniProt Q16512)
# T30 construct: purchased KINOMEscan
# From the text: as §1
# panel of 442 kinases [31] = target: T31, panel of 442 kinases (Homo sapiens, UniProt Q13976)
# T31 construct: purchased KINOMEscan
# From the text: as §1
# panel of 442 kinases [32] = target: T32, panel of 442 kinases (Homo sapiens, UniProt Q06187)
# T32 construct: purchased KINOMEscan
# From the text: as §1
# panel of 442 kinases [33] = target: T33, panel of 442 kinases (Homo sapiens, UniProt Q9BQI3)
# T33 construct: purchased KINOMEscan
# From the text: as §1
# panel of 442 kinases [34] = target: T34, panel of 442 kinases (Homo sapiens, UniProt Q9Y2K2)
# T34 construct: purchased KINOMEscan
# From the text: as §1
# panel of 442 kinases [35] = target: T35, panel of 442 kinases (Homo sapiens, UniProt Q9UEE5)
# T35 construct: purchased KINOMEscan
# From the text: as §1
# panel of 442 kinases [36] = target: T36, panel of 442 kinases (Homo sapiens, UniProt P16234)
# T36 construct: purchased KINOMEscan
# From the text: as §1
# panel of 442 kinases [37] = target: T37, panel of 442 kinases (Homo sapiens, UniProt P48729)
# T37 construct: purchased KINOMEscan
# From the text: as §1
# panel of 442 kinases [38] = target: T38, panel of 442 kinases (Homo sapiens, UniProt P42336, E542K)
# T38 construct: purchased KINOMEscan
# From the text: as §1
# panel of 442 kinases [39] = target: T39, panel of 442 kinases (Homo sapiens, UniProt P07332)
# T39 construct: purchased KINOMEscan
# From the text: as §1
# panel of 442 kinases [40] = target: T40, panel of 442 kinases (Homo sapiens, UniProt P00519, Q252H)
# T40 construct: purchased KINOMEscan
# From the text: as §1
# panel of 442 kinases [41] = target: T41, panel of 442 kinases (Homo sapiens, UniProt Q9Y5S2)
# T41 construct: purchased KINOMEscan
# From the text: as §1
# panel of 442 kinases [42] = target: T42, panel of 442 kinases (Homo sapiens, UniProt O00750)
# T42 construct: purchased KINOMEscan
# From the text: as §1
compound,measurement,setting,value
COc1cc(C(=O)N2CCC(N3CCN(C)CC3)CC2)ccc1Nc1ncc2c(n1)N1CCc3cccc(c31)C(=O)N2C [Compound 24],KINOMEscan: MEK4,panel of 442 kinases [1],100
same,KINOMEscan: PKAC-alpha,panel of 442 kinases [2],91
same,KINOMEscan: ERBB2,panel of 442 kinases [3],100
same,KINOMEscan: PAK7,panel of 442 kinases [4],100
same,KINOMEscan: FLT3,panel of 442 kinases [5],100
same,KINOMEscan: ABL2,panel of 442 kinases [6],100
same,KINOMEscan: PIP5K2B,panel of 442 kinases [7],96
same,KINOMEscan: HCK,panel of 442 kinases [8],100
same,KINOMEscan: DRAK2,panel of 442 kinases [9],100
same,KINOMEscan: PAK2,panel of 442 kinases [10],90
same,KINOMEscan: PKAC-beta,panel of 442 kinases [11],100
same,KINOMEscan: LIMK1,panel of 442 kinases [12],100
same,KINOMEscan: MAP4K2,panel of 442 kinases [13],86
same,KINOMEscan: CDKL5,panel of 442 kinases [14],100
same,KINOMEscan: PCTK1,panel of 442 kinases [15],100
same,KINOMEscan: LATS1,panel of 442 kinases [16],100
same,KINOMEscan: MST2,panel of 442 kinases [17],100
same,KINOMEscan: CDK5,panel of 442 kinases [18],100
same,KINOMEscan: LCK,panel of 442 kinases [19],87
same,KINOMEscan: KIT(D816V),panel of 442 kinases [20],71
same,KINOMEscan: CAMKK1,panel of 442 kinases [21],77
same,KINOMEscan: LKB1,panel of 442 kinases [22],90
same,KINOMEscan: CHEK2,panel of 442 kinases [23],100
same,KINOMEscan: BMPR2,panel of 442 kinases [24],100
same,KINOMEscan: MAP3K4,panel of 442 kinases [25],98
same,KINOMEscan: ACVRL1,panel of 442 kinases [26],99
same,KINOMEscan: p38-alpha,panel of 442 kinases [27],38
same,KINOMEscan: PIK3CA(C420R),panel of 442 kinases [28],100
same,KINOMEscan: ASK1,panel of 442 kinases [29],100
same,KINOMEscan: PKN1,panel of 442 kinases [30],100
same,KINOMEscan: PRKG1,panel of 442 kinases [31],100
same,KINOMEscan: BTK,panel of 442 kinases [32],100
same,KINOMEscan: EIF2AK1,panel of 442 kinases [33],100
same,KINOMEscan: QSK,panel of 442 kinases [34],100
same,KINOMEscan: DRAK1,panel of 442 kinases [35],100
same,KINOMEscan: PDGFRA,panel of 442 kinases [36],100
same,KINOMEscan: CSNK1A1,panel of 442 kinases [37],100
same,KINOMEscan: PIK3CA(E542K),panel of 442 kinases [38],75
same,KINOMEscan: FES,panel of 442 kinases [39],100
same,KINOMEscan: ABL1(Q252H)-nonphosphorylated,panel of 442 kinases [40],81
same,KINOMEscan: ABL1(Q252H)-phosphorylated,panel of 442 kinases [40],100
same,KINOMEscan: MRCKB,panel of 442 kinases [41],100
same,KINOMEscan: PIK3C2B,panel of 442 kinases [42],100
